# CycPeptMPDB entries from one study

PAMPA measures passive passage through an artificial lipid membrane.
MDCK values are permeabilities across Madin-Darby canine kidney cell monolayers.
P is given in units of 10^-6 cm/s (from log10 values with two decimals); larger means faster passage.

* CC(=O)N1CCC[C@@H]1C(=O)N(C)[C@@H](CC(C)C)C(=O)N[C@@H]1C(=O)N[C@H](CC(C)C)C(=O)N[C@@H](CC(C)C)C(=O)N(C)[C@H](CC(C)C)C(=O)N(C)[C@H](C)C(=O)N[C@@H](CC(C)C)C(=O)N2CCC[C@H]2C(=O)O[C@@H]1C: PAMPA 2.4 × 10^-6 cm/s
* CC(=O)N1CCC[C@@H]1C(=O)N(C)[C@H](CC(C)C)C(=O)N[C@@H]1C(=O)N(C)[C@H](CC(C)C)C(=O)N[C@H](CC(C)C)C(=O)N[C@@H](CC(C)C)C(=O)N(C)[C@@H](C)C(=O)N[C@@H](CC(C)C)C(=O)N2CCC[C@H]2C(=O)O[C@@H]1C: PAMPA 0.14 × 10^-6 cm/s
* CC(=O)N1CCC[C@H]1C(=O)N(C)[C@H](CC(C)C)C(=O)N[C@@H]1C(=O)N(C)[C@H](CC(C)C)C(=O)N(C)[C@@H](CC(C)C)C(=O)N(C)[C@@H](CC(C)C)C(=O)N(C)[C@@H](C)C(=O)N[C@@H](CC(C)C)C(=O)N2CCC[C@H]2C(=O)O[C@@H]1C: PAMPA 8.1 × 10^-6 cm/s
* CC(=O)N1CCC[C@@H]1C(=O)N(C)[C@@H](CC(C)C)C(=O)N[C@@H]1C(=O)N(C)[C@@H](CC(C)C)C(=O)N[C@@H](CC(C)C)C(=O)N[C@@H](CC(C)C)C(=O)N[C@@H](C)C(=O)N[C@H](CC(C)C)C(=O)N2CCC[C@@H]2C(=O)O[C@@H]1C: PAMPA 0.048 × 10^-6 cm/s
* CC(=O)N1CCC[C@H]1C(=O)N(C)[C@H](CC(C)C)C(=O)N[C@@H]1C(=O)N(C)[C@@H](CC(C)C)C(=O)N(C)[C@@H](CC(C)C)C(=O)N(C)[C@H](CC(C)C)C(=O)N(C)[C@H](C)C(=O)N[C@H](CC(C)C)C(=O)N2CCC[C@@H]2C(=O)O[C@@H]1C: PAMPA 4.3 × 10^-6 cm/s
* CC(=O)N1CCC[C@H]1C(=O)N(C)[C@H](CC(C)C)C(=O)N[C@@H]1C(=O)N[C@H](CC(C)C)C(=O)N[C@@H](CC(C)C)C(=O)N(C)[C@@H](CC(C)C)C(=O)N[C@@H](C)C(=O)N[C@@H](CC(C)C)C(=O)N2CCC[C@@H]2C(=O)O[C@@H]1C: PAMPA 6.2 × 10^-6 cm/s
* CC(=O)N1CCC[C@@H]1C(=O)N(C)[C@H](CC(C)C)C(=O)N[C@@H]1C(=O)N[C@H](CC(C)C)C(=O)N[C@H](CC(C)C)C(=O)N[C@@H](CC(C)C)C(=O)N[C@@H](C)C(=O)N[C@@H](CC(C)C)C(=O)N2CCC[C@@H]2C(=O)O[C@@H]1C: PAMPA 0.015 × 10^-6 cm/s; MDCK 0.4 × 10^-6 cm/s
* CC(=O)N1CCC[C@H]1C(=O)N(C)[C@@H](CC(C)C)C(=O)N[C@@H]1C(=O)N[C@H](CC(C)C)C(=O)N(C)[C@H](CC(C)C)C(=O)N(C)[C@H](CC(C)C)C(=O)N[C@H](C)C(=O)N[C@H](CC(C)C)C(=O)N2CCC[C@@H]2C(=O)O[C@@H]1C: PAMPA 0.31 × 10^-6 cm/s
* CC(=O)N1CCC[C@@H]1C(=O)N(C)[C@H](CC(C)C)C(=O)N[C@@H]1C(=O)N[C@@H](CC(C)C)C(=O)N[C@H](CC(C)C)C(=O)N[C@H](CC(C)C)C(=O)N(C)[C@H](C)C(=O)N[C@H](CC(C)C)C(=O)N2CCC[C@H]2C(=O)O[C@@H]1C: PAMPA 0.066 × 10^-6 cm/s
* CC(=O)N1CCC[C@H]1C(=O)N[C@@H]1C(=O)N[C@H](CC(C)C)C(=O)N[C@H](CC(C)C)C(=O)N[C@H](CC(C)C)C(=O)N(C)[C@H](CC(C)C)C(=O)N[C@H](C)C(=O)N[C@@H](CC(C)C)C(=O)N2CCC[C@@H]2C(=O)O[C@@H]1C: PAMPA 1.8 × 10^-6 cm/s
* CC(=O)N1CCC[C@H]1C(=O)N[C@@H]1C(=O)N(C)[C@H](CC(C)C)C(=O)N(C)[C@@H](CC(C)C)C(=O)N(C)[C@H](CC(C)C)C(=O)N(C)[C@H](CC(C)C)C(=O)N(C)[C@H](C)C(=O)N[C@@H](CC(C)C)C(=O)N2CCC[C@@H]2C(=O)O[C@@H]1C: PAMPA 4.8 × 10^-6 cm/s
* CC(=O)N1CCC[C@H]1C(=O)N(C)[C@@H](CC(C)C)C(=O)N[C@@H]1C(=O)N(C)[C@H](CC(C)C)C(=O)N[C@@H](CC(C)C)C(=O)N(C)[C@H](CC(C)C)C(=O)N(C)[C@@H](C)C(=O)N[C@H](CC(C)C)C(=O)N2CCC[C@@H]2C(=O)O[C@@H]1C: PAMPA 0.91 × 10^-6 cm/s
* CC(=O)N1CCC[C@H]1C(=O)N(C)[C@@H](CC(C)C)C(=O)N[C@@H]1C(=O)N[C@H](CC(C)C)C(=O)N[C@H](CC(C)C)C(=O)N(C)[C@H](CC(C)C)C(=O)N[C@@H](C)C(=O)N[C@@H](CC(C)C)C(=O)N2CCC[C@H]2C(=O)O[C@@H]1C: PAMPA 0.43 × 10^-6 cm/s
* CC(=O)N1CCC[C@H]1C(=O)N(C)[C@H](CC(C)C)C(=O)N[C@@H]1C(=O)N[C@@H](CC(C)C)C(=O)N[C@H](CC(C)C)C(=O)N[C@H](CC(C)C)C(=O)N[C@@H](C)C(=O)N[C@H](CC(C)C)C(=O)N2CCC[C@@H]2C(=O)O[C@@H]1C: PAMPA 0.14 × 10^-6 cm/s
* CC(=O)N1CCC[C@H]1C(=O)N[C@@H]1C(=O)N[C@H](CC(C)C)C(=O)N[C@H](CC(C)C)C(=O)N(C)[C@H](CC(C)C)C(=O)N[C@@H](CC(C)C)C(=O)N[C@@H](C)C(=O)N[C@@H](CC(C)C)C(=O)N2CCC[C@@H]2C(=O)O[C@@H]1C: PAMPA 2.7 × 10^-6 cm/s
* CC(=O)N1CCC[C@@H]1C(=O)N(C)[C@H](CC(C)C)C(=O)N[C@@H]1C(=O)N(C)[C@H](CC(C)C)C(=O)N[C@@H](CC(C)C)C(=O)N[C@@H](CC(C)C)C(=O)N(C)[C@@H](C)C(=O)N[C@@H](CC(C)C)C(=O)N2CCC[C@H]2C(=O)O[C@@H]1C: PAMPA 0.16 × 10^-6 cm/s
* CC(=O)N1CCC[C@H]1C(=O)N(C)[C@@H](CC(C)C)C(=O)N[C@@H]1C(=O)N[C@H](CC(C)C)C(=O)N[C@H](CC(C)C)C(=O)N[C@@H](CC(C)C)C(=O)N(C)[C@H](C)C(=O)N[C@H](CC(C)C)C(=O)N2CCC[C@H]2C(=O)O[C@@H]1C: PAMPA 1.3 × 10^-6 cm/s
* CC(=O)N1CCC[C@H]1C(=O)N(C)[C@@H](CC(C)C)C(=O)N[C@@H]1C(=O)N(C)[C@@H](CC(C)C)C(=O)N(C)[C@@H](CC(C)C)C(=O)N(C)[C@H](CC(C)C)C(=O)N(C)[C@H](C)C(=O)N[C@@H](CC(C)C)C(=O)N2CCC[C@@H]2C(=O)O[C@@H]1C: PAMPA 3.2 × 10^-6 cm/s

Excerpt, the final 3 entries:

* CC(=O)N1CCC[C@@H]1C(=O)N(C)[C@H](CC(C)C)C(=O)N[C@@H]1C(=O)N(C)[C@H](CC(C)C)C(=O)N[C@@H](CC(C)C)C(=O)N[C@@H](CC(C)C)C(=O)N(C)[C@@H](C)C(=O)N[C@@H](CC(C)C)C(=O)N2CCC[C@H]2C(=O)O[C@@H]1C: PAMPA 0.16 × 10^-6 cm/s
* CC(=O)N1CCC[C@H]1C(=O)N(C)[C@@H](CC(C)C)C(=O)N[C@@H]1C(=O)N[C@H](CC(C)C)C(=O)N[C@H](CC(C)C)C(=O)N[C@@H](CC(C)C)C(=O)N(C)[C@H](C)C(=O)N[C@H](CC(C)C)C(=O)N2CCC[C@H]2C(=O)O[C@@H]1C: PAMPA 1.3 × 10^-6 cm/s
* CC(=O)N1CCC[C@H]1C(=O)N(C)[C@@H](CC(C)C)C(=O)N[C@@H]1C(=O)N(C)[C@@H](CC(C)C)C(=O)N(C)[C@@H](CC(C)C)C(=O)N(C)[C@H](CC(C)C)C(=O)N(C)[C@H](C)C(=O)N[C@@H](CC(C)C)C(=O)N2CCC[C@@H]2C(=O)O[C@@H]1C: PAMPA 3.2 × 10^-6 cm/s

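Conditions beyond the assay type are not listed; see the original paper. Other peptides of the study may be missing here. Entries at the database's floor value (log10 P of -10) are not listed.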

Values of Kelly et al. 2021, doi:10.1021/jacs.0c06115, as listed in CycPeptMPDB.